IC50 data for 63 compounds are collected here from patent US7893077B2, “Bisaryl-sulfonamides” (Amgen Inc., priority 2004, dated 2011).

Protein sequences, listed by entry. Tags and fused reporters are not part of them.
UniProt P37231, whole entry: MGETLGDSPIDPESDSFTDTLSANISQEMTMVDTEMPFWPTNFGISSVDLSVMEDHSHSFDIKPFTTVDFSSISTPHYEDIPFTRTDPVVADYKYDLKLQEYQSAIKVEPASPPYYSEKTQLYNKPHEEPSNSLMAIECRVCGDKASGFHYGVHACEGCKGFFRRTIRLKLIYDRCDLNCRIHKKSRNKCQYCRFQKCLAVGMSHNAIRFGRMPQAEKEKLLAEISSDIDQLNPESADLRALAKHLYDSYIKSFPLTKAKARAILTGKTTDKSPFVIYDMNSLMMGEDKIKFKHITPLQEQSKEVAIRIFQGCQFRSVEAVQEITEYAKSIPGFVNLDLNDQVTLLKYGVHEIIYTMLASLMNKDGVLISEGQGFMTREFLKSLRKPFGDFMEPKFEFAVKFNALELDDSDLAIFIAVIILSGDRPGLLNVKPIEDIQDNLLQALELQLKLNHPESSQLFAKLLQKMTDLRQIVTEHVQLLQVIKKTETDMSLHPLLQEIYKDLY

For the first test, the target named is PPARγ (Homo sapiens, UniProt P37231). Briefly: PPARγ ligand binding assay utilizing [3H]-BRL 49653 as the radioligand (filtration). The note with it: read-out: PPARγ Binding IC50 Filtration; concentration required to reduce by 50% the specific binding of [3H]-BRL 49653. In outline: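 Displacement of 10 nM [3H]-BRL 49653 from PPARγ-GST fusion protein in Tris-HCl pH 8.0 buffer with KCl, DTT, BSA and NP-40, 15 min incubation, then glutathione-bead capture for 1 h. Bound radioactivity counted after filtration washes; IC50 is concentration giving 50% loss of specific binding, reported in ranges.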
With `CCc1cc(S(=O)(=O)N(CC)CC)ccc1Oc1c(Cl)cc(NS(=O)(=O)c2ccc(Cl)cc2Cl)cc1Cl`, the IC50 was below 1 µM.
In the case of `CC(C)OCc1cc(NS(=O)(=O)c2ccc(C(F)(F)F)cc2Cl)ccc1Oc1ccc(S(=O)(=O)N2CCCCC2)cc1`, the IC50 was below 1 µM.
The same measure, in the same setting: for `CON(C)C(=O)c1cc(NS(=O)(=O)c2ccc(C(F)(F)F)cc2Cl)ccc1Oc1ccc(S(=O)(=O)N2CCCCC2)cc1` the value was below 10 µM; for `CC(C)N(C)C(=O)c1cc(NS(=O)(=O)c2ccc(C(F)(F)F)cc2Cl)ccc1Oc1ccc(S(=O)(=O)N2CCCCC2)cc1`, below 1 µM.
Still for that read-out and setting: in the case of `Cc1cc(S(=O)(=O)Nc2ccc(Sc3ccc(S(=O)(=O)N4CCCCC4)cc3)c(C(=O)OC(C)C)c2)c(Cl)cc1Cl` it was below 1 µM; in that of `CC(=O)c1cc(NS(=O)(=O)c2ccccc2C(F)(F)F)cc(Cl)c1Oc1ccc(S(=O)(=O)N2CCOCC2)cc1`, below 10 µM.
On the same count and under the same terms, for `CCN(CC)S(=O)(=O)c1ccc(Oc2c(Cl)cc(NS(=O)(=O)c3ccc(C(F)(F)F)cc3Cl)cc2C(C)=O)cc1` the value was below 1 µM; for `CC(F)(F)c1cc(NS(=O)(=O)c2ccc(C(F)(F)F)cc2Cl)cc(Cl)c1Oc1ccc(S(=O)(=O)N2CCOCC2)cc1`, below 1 µM.
In the case of `O=S(=O)(Nc1cc(Cl)c(Oc2ccc(S(=O)(=O)N3CCSCC3)cc2)c(Cl)c1)c1ccc(C(F)(F)F)cc1Cl`, the IC50 is below 1 µM.
Same read-out and setting: in the case of `O=S(=O)(Nc1ccc(Oc2ccc(S(=O)(=O)N3CCCCC3)cc2)c(CN2CCOCC2)c1)c1ccc(Cl)cc1Cl` it was below 1 µM; in that of `CCCC(=O)c1cc(NS(=O)(=O)c2ccc(Cl)cc2Cl)ccc1Oc1ccc(S(=O)(=O)N2CCOCC2)cc1`, below 1 µM; in that of `CC(F)(F)c1cc(NS(=O)(=O)c2ccc(C(F)(F)F)cc2Cl)cc(Cl)c1Oc1ccc(S(=O)(=O)N2CCCCC2)cc1`, below 1 µM.
With `CC(=O)c1cc(NS(=O)(=O)c2ccc(Cl)cc2Cl)cc(Cl)c1Oc1ccc(S(=O)(=O)N2CCOCC2)cc1`, the IC50 is below 1 µM.
The same measure, in the same setting: for `CCN(CC)S(=O)(=O)c1ccc(Oc2c(Cl)cc(NS(=O)(=O)c3cc(C)c(Cl)cc3C)cc2Cl)cc1` the value was below 1 µM; for `Cc1cc(S(=O)(=O)Nc2ccc(Sc3ccc(S(=O)(=O)N4CCCCC4)cc3)cn2)c(Cl)cc1Cl` [Compound 67, 2,4-Dichloro-5-methyl-N-{5-[4-(piperidine-1-sulfonyl) -phenylsulfanyl]-pyridin-2-yl}-benzenesulfonamide], below 1 µM; for `CCCC(=O)c1cc(NS(=O)(=O)c2ccc(Cl)cc2Cl)ccc1Oc1ccc(S(=O)(=O)N2CCCCC2)cc1`, below 1 µM.
As for `Cc1cc(S(=O)(=O)Nc2ccc(Oc3ccc(S(=O)(=O)N4CCCCC4)c(C)c3)c(C(=O)N(C)C(C)C)c2)c(Cl)cc1Cl`, the IC50 was below 1 µM.
Still for that read-out and setting: for `O=C(c1cc(NS(=O)(=O)c2ccc(C(F)(F)F)cc2Cl)ccc1Sc1ccc(S(=O)(=O)N2CCOCC2)cn1)C1CC1` the value was below 1 µM.
With `CCN(CC)S(=O)(=O)c1ccc(Oc2ccc(NS(=O)(=O)c3ccc(C(F)(F)F)cc3Cl)cc2CO)cc1`, the IC50 is below 10 µM.
On the same count and under the same terms, for `CCOC(=O)c1nc(-c2cc(NS(=O)(=O)c3ccc(Cl)cc3Cl)ccc2Oc2ccc(S(=O)(=O)N3CCOCC3)cc2)cs1` the value was below 10 µM; for `O=S(=O)(Nc1ccc(Oc2ccc(S(=O)(=O)N3CCOCC3)cc2)c(Cl)c1)c1ccc(Cl)cc1Cl`, below 10 µM; for `CN(C)C(=O)c1cc(NS(=O)(=O)c2ccc(C(F)(F)F)cc2Cl)cc(Cl)c1Oc1ccc(S(=O)(=O)N2CCOCC2)cc1`, below 10 µM.
For `CON(C)C(=O)c1cc(NS(=O)(=O)c2cc(C)c(Cl)cc2Cl)ccc1Oc1ccc(S(=O)(=O)N2CCCCC2)cc1`, the IC50 is below 1 µM.
On the same count and under the same terms, in the case of `O=S(=O)(Nc1ncc(Sc2ccc(S(=O)(=O)N3CCCCC3)cc2)c(O)n1)c1ccc(Cl)cc1Cl` it was below 10 µM; in that of `CC(=O)c1cc(NS(=O)(=O)c2ccc(C(F)(F)F)cc2Cl)ccc1Oc1ccc(S(=O)(=O)N2CCCCC2)c(C)c1`, below 1 µM; in that of `CCC(C)NC(=O)c1cc(NS(=O)(=O)c2ccc(C(F)(F)F)cc2Cl)ccc1Oc1ccc(S(=O)(=O)N2CCCCC2)c(C)c1` (stereo not drawn), below 1 µM.
Turning to `CC(=O)c1cc(NS(=O)(=O)c2cc(C)c(Cl)cc2Cl)cc(Cl)c1Oc1ccc(S(=O)(=O)N2CCCC2)c(C)c1`, the IC50 was below 1 µM.
Still for that read-out and setting: in the case of `CC(=O)c1cc(NS(=O)(=O)c2cc(C)c(Cl)cc2Cl)ccc1Oc1ccc(S(=O)(=O)N2CCCC2)c(C)c1` it was below 1 µM; in that of `CC(=O)c1cc(NS(=O)(=O)c2cc(C)c(Cl)cc2Cl)ccc1Oc1ccc(S(=O)(=O)N2CCCCC2)cc1`, below 1 µM; in that of `CCOCc1cc(NS(=O)(=O)c2ccc(Cl)cc2Cl)ccc1Oc1ccc(S(=O)(=O)N2CCOCC2)cc1`, below 1 µM.
`O=S(=O)(Nc1cc(Cl)c(Oc2ccc(S(=O)(=O)C3CCCC3)cc2)c(Cl)c1)c1ccc(C(F)(F)F)cc1Cl`: the IC50 is below 1 µM.
Turning to `CC(=O)c1cc(NS(=O)(=O)c2ccc(Cl)cc2)cc(Cl)c1Oc1ccc(S(=O)(=O)N2CCOCC2)cc1`, the IC50 is below 1 µM.
Take `CCC(=O)c1cc(NS(=O)(=O)c2cc(C)c(Cl)cc2Cl)ccc1Oc1ccc(S(=O)(=O)N2CCCCC2)cc1`: the IC50 is below 1 µM.
Consider `CCN(CC1CCCN1)S(=O)(=O)c1ccc(Sc2c(Cl)cc(NS(=O)(=O)c3ccc(C(F)(F)F)cc3Cl)cc2Cl)cc1` (stereo not drawn), for which the IC50 is below 1 µM.
The same measure, in the same setting: for `Cc1cc(Oc2ccc(NS(=O)(=O)c3ccc(OC(F)(F)F)cc3)cc2C(=O)N(C)C(C)C)ccc1S(=O)(=O)N1CCCC1` the value was below 10 µM; for `Cc1cc(Oc2c(Cl)cc(NS(=O)(=O)c3ccc(C(F)(F)F)cc3Cl)cc2Cl)ccc1S(=O)(=O)N1CCCCC1`, below 1 µM.
As to `Cc1cc(Oc2ccc(NS(=O)(=O)c3ccc(OC(F)(F)F)cc3)cc2C(=O)N(C)C(C)C)ccc1S(=O)(=O)N1CCCCC1`, the IC50 is below 10 µM.
Consider `Cc1cc(Oc2ccc(NS(=O)(=O)c3ccc(C(F)(F)F)cc3Cl)cc2C(=O)NC(C)C)ccc1S(=O)(=O)N1CCCC1`, for which the IC50 is below 1 µM.
As for `Cc1cc(S(=O)(=O)Nc2ccc(Oc3ccc(S(=O)(=O)N4CCCCC4)cc3)c(C(=O)NC(C)C)c2)c(Cl)cc1Cl`, the IC50 is below 1 µM.
Same read-out and setting: in the case of `C[C@@H]1CN(S(=O)(=O)c2ccc(Oc3c(Cl)cc(NS(=O)(=O)c4ccc(C(F)(F)F)cc4Cl)cc3Cl)cc2)C[C@H](C)O1` (relative stereo) it was below 1 µM.
Same read-out and setting: for `CC(=O)c1cc(NS(=O)(=O)c2ccc(C)c(Cl)c2)cc(Cl)c1Oc1ccc(S(=O)(=O)N2CCOCC2)cc1` the value was below 10 µM; for `CC(=O)c1cc(NS(=O)(=O)c2c(F)cc(F)cc2F)cc(Cl)c1Oc1ccc(S(=O)(=O)N2CCOCC2)cc1`, below 10 µM; for `CS(=O)(=O)c1ccc(Sc2ccc(NS(=O)(=O)c3ccc(C(F)(F)F)cc3Cl)cc2Cl)cc1`, below 1 µM.
On to `Cc1cc(Oc2ccc(NS(=O)(=O)c3cc(F)c(Cl)cc3F)cc2C(=O)NC(C)C)ccc1S(=O)(=O)N1CCCC1`, for which the IC50 was below 10 µM.
Turning to `Cc1cc(NS(=O)(=O)c2ccc(C(F)(F)F)cc2Cl)nnc1Sc1ccc(S(=O)(=O)N2CCOCC2)cc1`, the IC50 was below 10 µM.
The same measure, in the same setting: in the case of `CC(=O)c1cc(NS(=O)(=O)c2ccc(Cl)cc2Cl)ccc1Oc1ccc(S(=O)(=O)N2CCOCC2)cc1` it was below 1 µM; in that of `CS(=O)(=O)c1ccc(S(=O)(=O)c2ccc(NS(=O)(=O)c3ccc(C(F)(F)F)cc3Cl)cc2Cl)cc1`, below 1 µM; in that of `COc1ccc(S(=O)(=O)Nc2cc(Cl)c(Oc3ccc(S(=O)(=O)N4CCOCC4)cc3)c(C(C)=O)c2)cc1OC`, below 10 µM.
The same measure, in the same setting: for `CC(=O)c1cc(NS(=O)(=O)c2cc(Cl)c(Cl)cc2Cl)cc(Cl)c1Oc1ccc(S(=O)(=O)N2CCOCC2)cc1` the value was below 1 µM.
On the same count and under the same terms, in the case of `O=S(=O)(Nc1cc(Cl)c(Sc2ccc(S(=O)(=O)N3CCOCC3)cc2)c(Cl)c1)c1ccc(C(F)(F)F)cc1Cl` it was below 1 µM.
Take `O=S(=O)(Nc1cc(Cl)c(Oc2ccc(S(=O)(=O)N3CC[C@@H](O)C3)cc2)c(Cl)c1)c1ccc(C(F)(F)F)cc1Cl`: the IC50 was below 1 µM.
`O=C(c1cc(NS(=O)(=O)c2ccc(Cl)cc2Cl)ccc1Oc1ccc(S(=O)(=O)N2CCCCC2)cc1)N1CCCC1`: the IC50 was below 1 µM.
Consider `O=S(=O)(Nc1ncc(Sc2ccc3ccccc3c2)c(Cl)n1)c1ccc(Cl)cc1Cl`, for which the IC50 was below 10 µM.
On the same count and under the same terms, in the case of `CCc1ccc(S(=O)(=O)Nc2cc(Cl)c(Oc3ccc(S(=O)(=O)N4CCOCC4)cc3)c(C(C)=O)c2)cc1` it was below 10 µM; in that of `Cc1cc(S(=O)(=O)Nc2cc(C)c(Sc3ccc(S(=O)(=O)N4CCCCC4)cc3)cn2)c(Cl)cc1Cl` [Compound 62, 2,4-Dichloro-5-methyl-N-{4-methyl-5-[4-(piperidine-1-sulfonyl)-phenylsulfanyl]-pyridin-2-yl}-benzenesulfonamide], below 1 µM.
Same read-out and setting: in the case of `CCN(CC)S(=O)(=O)c1ccc(Oc2ccc(NS(=O)(=O)c3ccc(Cl)cc3Cl)cc2C(=O)C2CC2)cc1` it was below 1 µM; in that of `CC(C)NC(=O)c1cc(NS(=O)(=O)c2ccc(Cl)cc2Cl)ccc1Oc1ccc(S(=O)(=O)N2CCCCC2)cc1`, below 1 µM.
For `CCNC(=O)CCCS(=O)(=O)c1ccc(Sc2c(Cl)cc(NS(=O)(=O)c3ccc(C(F)(F)F)cc3Cl)cc2Cl)cc1`, the IC50 is below 1 µM.
For `CCN(CC)S(=O)(=O)c1ccc(Oc2c(Cl)cc(NS(=O)(=O)c3ccc(C(F)(F)F)cc3Cl)cc2C(C)(F)F)cc1`, the IC50 was below 1 µM.
Same read-out and setting: in the case of `Cc1cc(S(=O)(=O)Nc2ccc(Oc3ccc(S(=O)(=O)N4CCCCC4)cc3)c(C(=O)NCC(C)C)c2)c(Cl)cc1Cl` it was below 1 µM.
The same measure, in the same setting: for `CC(C)N(C)C(=O)c1cc(NS(=O)(=O)c2ccc(Cl)cc2Cl)ccc1Oc1ccc(S(=O)(=O)N2CCCCC2)cc1` the value was below 1 µM; for `Cc1cc(S(=O)(=O)Nc2ccc(Sc3ccccc3)nn2)c(Cl)cc1Cl`, below 10 µM.

The same test, now with this note: read-out: PPARγ Binding IC50 Filtration; concentration required to reduce by 50% the specific binding of [3H]-BRL 49653; tested form: TFA salt.
For the compound `CN1CCN(S(=O)(=O)c2ccc(Oc3c(Cl)cc(NS(=O)(=O)c4ccc(C(F)(F)F)cc4Cl)cc3Cl)cc2)CC1`, the IC50 is below 1 µM.
